# Source: PubChem BioAssay AID435030 (The Scripps Research Institute Molecular Screening Center, 2010)
# Only a part is listed here, and it is no random draw. Active and inactive are the calls of the source. No stated cut-off is given here; in the data, active means inhibition above about 12%; inactive means the rest.
# Experiment: growth inhibition of E. coli expressing H. pylori AddAB, primary screen, AddAB inhibitor project, absorbance (AID 435030);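 further: 0% = vehicle wells of infected cells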
# Details: at 11.9 µM, active compounds read high
row,SMILES,inhibition
1,CCC(=O)N(c1ccccc1)C1(COC)CCN(CCc2cccs2)CC1,inactive: -0.85%
2,CCC(=O)N(c1ccccc1)C1(COC)CCN(CCn2nnn(CC)c2=O)CC1,inactive: 0.85%
